Source: publication PMC6359543, “Efficacy of Azatyrosine-Phenylbutyric Hydroxamides, a Histone Deacetylase Inhibitor, on Chemotherapy-Induced Gastrointestinal Mucositis” (International Journal of Molecular Sciences, 2019)

System: male ICR mice
Experiment: Micronucleus test
Settings: Day 1; Cyclophosphamide 200 mg/kg

O=P1(N(CCCl)CCCl)NCCCO1 (stereo not shown) [Cyclophosphamide]
Number of Micronuclei (‰): 4.73±037 ‰
